Results reported in US7531312B2, “Simplified biological evaluation method of natural and artificial chemicals by using DNA injury index and apparatus therefor” (TAS Project Co., Ltd., priority 2000, dated 2009).

System: 2′-deoxyguanosine (dG)
Conditions: 1%; KBrO3 30 minutes; pure water ctrl 3.779

CO [Meth, methanol]
8OHdG × 10^−3: 2.882 mVs
